{"source": "patent US20230116728A1", "about": "“SECONDARY BATTERY, BATTERY PACK, VEHICLE, AND STATIONARY POWER SUPPLY” (KABUSHIKI KAISHA TOSHIBA, priority 2021, published 2023)", "test": "Measurement of solubility of antioxidant in water", "assay_type": "physicochemical", "conditions": "room temperature (23° C.), 10 g reagent charged, ultrasonic 10 minutes, insoluble components weighed", "data": [{"substance": "(±)-α-tocopherol", "values": [{"measurement": "solubility in 100 mL of water", "value": 0.5, "unit": "g"}]}]}
